Patent publication US8742106B2 (Novartis AG, priority 2009, dated 2014)

Sequences of proteins named here, by UniProt entry; tags and fusion partners are left off.
UniProt O43613, whole entry: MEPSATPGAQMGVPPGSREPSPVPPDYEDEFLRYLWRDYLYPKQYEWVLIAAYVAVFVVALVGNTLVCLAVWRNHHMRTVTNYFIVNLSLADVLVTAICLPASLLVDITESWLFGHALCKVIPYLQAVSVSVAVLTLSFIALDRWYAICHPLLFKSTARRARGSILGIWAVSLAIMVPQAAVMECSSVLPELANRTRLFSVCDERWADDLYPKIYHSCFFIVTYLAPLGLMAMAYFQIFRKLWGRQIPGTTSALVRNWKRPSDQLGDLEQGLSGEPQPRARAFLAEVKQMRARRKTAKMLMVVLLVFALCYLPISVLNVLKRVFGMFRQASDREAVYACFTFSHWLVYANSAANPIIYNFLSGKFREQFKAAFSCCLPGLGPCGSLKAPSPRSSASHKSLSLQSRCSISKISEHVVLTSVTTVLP
UniProt O43614, whole entry: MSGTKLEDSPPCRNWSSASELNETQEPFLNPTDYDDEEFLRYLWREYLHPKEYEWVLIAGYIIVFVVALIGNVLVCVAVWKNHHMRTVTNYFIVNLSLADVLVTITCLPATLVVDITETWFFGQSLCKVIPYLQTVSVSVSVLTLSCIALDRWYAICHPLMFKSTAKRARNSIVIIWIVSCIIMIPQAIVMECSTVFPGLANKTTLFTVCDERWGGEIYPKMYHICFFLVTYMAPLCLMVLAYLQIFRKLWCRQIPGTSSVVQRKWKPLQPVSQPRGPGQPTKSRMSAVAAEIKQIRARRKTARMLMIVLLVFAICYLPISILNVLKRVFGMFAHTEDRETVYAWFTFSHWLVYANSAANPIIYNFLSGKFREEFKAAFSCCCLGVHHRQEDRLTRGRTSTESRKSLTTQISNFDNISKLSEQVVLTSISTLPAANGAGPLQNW

Assays:
human orexin 1 receptors [1] = molecular target: T1, human orexin 1 receptors (Homo sapiens (Human), UniProt O43613); test: Calcium Accumulation in Cells (FLIPR), antagonism of orexin A; assay type: cell-based; settings: for Ki: antagonism of orexin A, Cheng-Prusoff corrected, read-out: FLIPR hOx1R Ki
Procedure: (§1) Calcium Accumulation in Cells (FLIPR):
Cells expressing human orexin 1 or human orexin 2 receptors, were seeded at 8,000 cells/well in 384 well black-walled clear bottom, poly-D-lysine coated plates. After 24 h, the medium was removed and cells were washed once with phosphate buffered saline and serum-deprived overnight in assay buffer (130 mM NaCl, 5.4 mM KCl, 1.8 mM CaCl2, 0.8 mM MgSO4, 0.9 mM NaH2PO4, 25 mM glucose, 20 mM HEPES, pH 7.4) containing bovine serum albumin (1% w/v).
On the day of the experiment, the cells seeded in black plates were treated with assay buffer containing the Ca^2+ sensitive fluorescent dye Fluo4-AM (2 μM), and probenecid (0.1 mM). After 1 h plates were washed twice with, and resuspended in, assay buffer containing probenecid (0.1 mM) using a multi plate washer. The plates were placed into a FLIPR II (Fluorometric Imaging Plate Reader, Molecular Devices, Sunnyvale, Calif., USA) and baseline fluorescence (fluorescence light units, FLU) was measured (5 measurements, 2 S each; laser excitation 488 nm at 0.6-1 W, CCD camera exposure 0.4 s) before addition of buffer alone (basal) or containing test compounds (either compound of formula (I) or (I′) alone, agonist alone or agonist in the presence of various concentrations of compounds of formula (I) or (I′)). Fluorescence measurements were then continued every 1 S for 120 S followed by every 4 S for 240 S.
(§2) The measurements were typically made in two sequences:
(§3) In the first round, compounds of formula (I) or (I′) were tested alone, to detect possible agonist activity. Compounds of formula I or I′ were tested usually in a concentration range from 10^−9 M to 10^−5 M.
(§4) In the second round, performed one hour later (to allow for equilibration), Orexin A was tested either in the absence (calibration curves, Orexin A agonist controls) or in the presence of compounds of formula (I) or (I′) to determine antagonism.

human orexin 2 receptors [2] = molecular target: T2, human orexin 2 receptors (Homo sapiens (Human), UniProt O43614); test: as above; assay type: cell-based; settings: Cheng-Prusoff corrected, read-out: FLIPR hOx2R Ki
Procedure: as §1
Cells expressing human orexin 1 or human orexin 2 receptors, were seeded at 8,000 cells/well in 384 well black-walled clear bottom, poly-D-lysine coated plates.
On the day of the experiment, the cells seeded in black plates were treated with assay buffer containing the Ca^2+ sensitive fluorescent dye Fluo4-AM (2 μM), and probenecid (0.1 mM). After 1 h plates were washed twice with, and resuspended in, assay buffer containing probenecid (0.1 mM) using a multi plate washer. […] Fluorescence measurements were then continued every 1 S for 120 S followed by every 4 S for 240 S.
as §2, §3, §4

human orexin 1 receptors [3] = molecular target: T1, human orexin 1 receptors; test: Radioligand Binding Assay I ([125I]orexin A competition, cell membranes); settings: read-out: binding I hOx1R Kd
Procedure: (§5) Radioligand Binding Assay I
(§6) For crude cell membrane preparations, cells (CHO, Chinese hamster ovary or HEK, human embryonic kidney) expressing human orexin 1 or human orexin 2 receptors, were washed with HEPES (10 mM, pH 7.5), scraped off the culture plates with the same buffer, and centrifuged at 4° C. for 5 min at 2500×g. The cell pellet was either stored at −80° C. or used directly. Before the experiments, cell membranes were re-suspended in binding assay buffer (10 mM HEPES, 0.5% (w/v) bovine serum albumin, pH 7.5) by homogenisation with a Polytron homogeniser at 50 Hz for 20 s. Cell membranes were also used as made available by commercial providers.
(§7) In initial saturation experiments (to calculate Bmax), cell homogenates (150 μl) were incubated with 25-300 pM of the radioligand ([^125I]orexin A, 50 μl), 8 concentrations in triplicates in the presence or absence Orexin A (1 μM, 50 μl) to define non specific binding. Bound radioactivity was measured, and data were analysed with the program XLFIT or Graphpad Prism. Protein concentration was determined according to the Bradford/BioRad Protein Assay Kit. […]

human orexin 2 receptors [4] = molecular target: T2, human orexin 2 receptors; test: as above; settings: read-out: binding I hOx2R Kd
Procedure: as §5, §6, §7

Cc1n[nH]c(C)c1[C@H](C)NC(=O)COc1cc(C(F)(F)F)c2c(-c3ccccc3)nn(C)c2n1 [Example 1.6, (S)—N-(1-(3,5-dimethyl-1H-pyrazol-4-yl)ethyl)-2-(1-methyl-3-phenyl-4-(trifluoromethyl)-1H-pyrazolo[3,4-b]pyridin-6-yloxy)acetamide]
Ki (human orexin 1 receptors [1]): 5 nM
Ki (human orexin 2 receptors [2]): 2 nM

Cc1n[nH]c(C)c1C(C)NC(=O)COc1cc(C(F)(F)F)c2c(-c3ccccc3)nn(C)c2n1 (stereo not shown) [Example 1.38, N-(1-(3,5-dimethyl-1H-pyrazol-4-yl)ethyl)-2-(1-methyl-3-phenyl-4-(trifluoromethyl)-1H-pyrazolo[3,4-b]pyridin-6-yloxy)acetamide]
Ki (human orexin 1 receptors [1]): 4 nM
Kd (human orexin 1 receptors [3]): 6 nM
Kd (human orexin 2 receptors [4]): 16 nM
Ki (human orexin 2 receptors [2]): 3 nM

Cc1n[nH]c(C)c1[C@@H](C)NC(=O)COc1cc(C(F)(F)F)c2c(-c3ccccc3)nn(C)c2n1 [Example 1.62, (R)-N-(1-(3,5-dimethyl-1H-pyrazol-4-yl)ethyl)-2-(1-methyl-3-phenyl-4-(trifluoromethyl)-1H-pyrazolo[3,4-b]pyridin-6-yloxy)acetamide]
inhibition at 10 µM (human orexin 1 receptors [1]; measured at a concentration of 10 μM of compound, read-out: FLIPR hOx1R % inhibition value): < 10%
